Drawing on PubChem BioAssay AID540364 (The Scripps Research Institute Molecular Screening Center, 2011), this text covers activation for 94 compounds.

The list shows a part of the results, in another mix than the full data. Some salts and complexes are drawn in separate pieces, as the source files them; their charges need not balance. Calls of active or inactive are those of the source.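 How the source made its calls: active means activation above the average of all compounds screened plus 3 SD, cutoff fixed separately per campaign (cut at about 7.5% in these data); inactive means the rest.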

A short description of this assay: GAA850 frataxin promoter reporter upregulation – cell-based, luciferase luminescence, HEK293 lucGAA850, primary screen (AID 540364).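 Further: 0% = DMSO wells and 100% = 10 µM SAHA wells.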 The following applies: HEK293 lucGAA850 FXN promoter luciferase reporter, 24 h; at 6 µM; active compounds read high; percent of 10 µM SAHA response.
On to `O=[N+]([O-])c1cc([N+](=O)[O-])c(Nc2ccc(Cl)cc2)c([N+](=O)[O-])c1`, for which the activation was inactive: -3.6%. On to `CP(=O)(Nc1ccccc1F)Oc1ccccc1` (centres undefined), for which the activation is inactive: -0.07%. To `CC(C)c1ccc(OP(C)(=O)Nc2ccc(SC(F)(F)F)cc2)cc1` (centres undefined) belongs inactive: 1.03%; to `O=C(OC1CN2CCC1CC2)c1ccc([N+](=O)[O-])cc1` (centres undefined), inactive: -2.57%; to `O=C(OCCN1CCN(CCOCc2ccccc2)CC1)C(O)(c1ccccc1)c1ccccc1`, inactive: -1.59%. As to `COc1ccc2c(c1O)-c1c(O)c(OC)cc3c1[C@H](C2)[N+](C)(C)CC3.O=[N+]([O-])c1cc([N+](=O)[O-])c([O-])c([N+](=O)[O-])c1[O-]`, the activation is inactive: 0.38%. Regarding `CCOC(=O)c1ccc(NP(C)(=O)Oc2ccc(F)cc2)cc1` (centres undefined), the activation was inactive: 3.65%. On to `COc1ccc(OP(C)(=O)Nc2ccc(SC(F)(F)F)cc2)cc1` (centres undefined), for which the activation is inactive: -1.84%. With `Cc1c([N+](=O)[O-])cc([N+](=O)[O-])c(Br)c1[N+](=O)[O-]`, the activation is inactive: -1.11%.

Consider `CCN(CC)CCCOC(=O)C(O)(c1ccccc1)C1CCCCC1` (centres undefined), for which the activation is inactive: 0.22%. The figure for `CP(=O)(Nc1ccccc1)Oc1ccc(F)cc1` (centres undefined) is inactive: 0.45%; for `O=[N+]([O-])c1cc([N+](=O)[O-])c(OC2CCCCC2O)c([N+](=O)[O-])c1` (centres undefined) it is inactive: -0.94%; for `CCCCCOc1ccc(NP(C)(=O)Oc2ccc(Cl)cc2Cl)cc1` (centres undefined) it is inactive: 0.77%.

On to `COc1ccc(OP(C)(=O)Nc2cccc(Br)c2)cc1` (centres undefined), for which the activation was inactive: -1.76%. The figure for `CN(C)CCOC(=O)C(O)(c1ccccc1)C1CCCCC1` (centres undefined) is inactive: 1.89%; for `COc1ccc(NP(C)(=O)Oc2ccccc2OC)cc1` (centres undefined) it is inactive: 1.56%. On to `O=[N+]([O-])c1ccc(OP2(=O)COCCO2)cc1` (centres undefined), for which the activation is inactive: 0.16%. With `Cc1cc(-c2cccc3ccccc23)c(C)cn1.O=[N+]([O-])c1cc([N+](=O)[O-])c(O)c([N+](=O)[O-])c1`, the activation is inactive: 2.66%. For the compound `O=[N+]([O-])c1cc([N+](=O)[O-])c(NCC2CCS(=O)(=O)C2)c([N+](=O)[O-])c1` (centres undefined), the activation was active: 11.8%. Regarding `Cc1c(C(c2ccc3c(c2)OCO3)c2c(C)n(C)n(-c3ccccc3)c2=O)c(=O)n(-c2ccccc2)n1C.O=[N+]([O-])c1cc([N+](=O)[O-])c(O)c([N+](=O)[O-])c1`, the activation was inactive: -1.88%. To `CP(=O)(Nc1ccc(SC(F)(F)F)cc1)Oc1ccc(F)cc1` (centres undefined) belongs inactive: -1.2%; to `CCOP(C)(=S)SCC(=O)NC(C)(CC)C(=O)O` (centres undefined), inactive: -1.46%. `CP(=O)(Nc1ccc2c(c1)OCCO2)Oc1ccccc1` (centres undefined): the activation was inactive: -4%. `Cc1ccccc1NP(C)(=O)Nc1ccccc1C`: the activation is inactive: -1.15%. For `CCN(CC)CC(O)COC(=O)C(O)(c1ccccc1)C1CCCCC1` (centres undefined), the activation was inactive: -1.9%. `COc1ccc(OP(C)(=O)Nc2ccc(Br)cc2)cc1` (centres undefined): the activation was inactive: -0.85%. For `COc1ccccc1OP(C)(=O)Nc1c(C)n(C)n(-c2ccccc2)c1=O` (centres undefined), the activation is inactive: -1.78%. The figure for `O=C(OCCCN1CCCC1)C(O)(c1ccccc1)C1CCCCC1` (centres undefined) is inactive: 1.5%; for `CP(=O)(Oc1ccccc1)N1CCOC1=O` (centres undefined) it is inactive: 0.27%. Regarding `CCc1ccc(OP(C)(=O)Nc2cccnc2)cc1` (centres undefined), the activation is inactive: -0.45%. As to `CC(C)(C)c1ccc(OP(C)(=O)O)cc1`, the activation is inactive: -1.34%. Consider `COc1ccccc1OP(C)(=O)Nc1ccccc1Br` (centres undefined), for which the activation was inactive: -0.11%. Regarding `CP(=O)(Nc1ccc(Cl)cc1)Oc1ccc(F)cc1` (centres undefined), the activation is inactive: 0.55%. Regarding `CN(C)C(=O)c1c([N+](=O)[O-])cc([N+](=O)[O-])cc1[N+](=O)[O-]`, the activation is inactive: -3.06%. `CCOC(=O)c1ccc(NP(C)(=O)Oc2ccc(Cl)cc2)cc1` (centres undefined): the activation is inactive: -2.33%. The figure for `CP(=O)(OC12CC3CC(CC(C3)C1)C2)OC12CC3CC(CC(C3)C1)C2` is inactive: -0.8%; for `O=C1C(O)=C([N+](=O)[O-])C(=O)C(O)=C1[N+](=O)[O-]` it is inactive: -1.8%; for `Cc1cc(C)cc(OP(C)(=O)Nc2cccc(C(F)(F)F)c2)c1` (centres undefined) it is inactive: 0.34%. The figure for `COc1ccccc1OP(C)(=O)Nc1ccc(C)c(C)c1` (centres undefined) is inactive: 0%; for `COc1ccc(OP(C)(=O)Nc2ccccc2Br)cc1` (centres undefined) it is inactive: 0.36%. With `CP(=O)(OCCOc1ccccc1)OCCOc1ccccc1`, the activation is inactive: 1.45%. The figure for `CP(=O)(Nc1ccc(Cl)cc1Cl)Oc1ccccc1` (centres undefined) is inactive: 0.99%; for `CCCCCCCCCCCCCCCC1C[N+](C)(C)CCOP(C)(=O)O1` (centres undefined) it is inactive: -0.83%.

For the compound `COc1ccccc1OP(C)(=O)Nc1ccc(Br)cc1` (centres undefined), the activation was inactive: 1.79%. Take `COc1ccc(OP(C)(=O)Nc2ccccn2)cc1` (centres undefined): the activation is inactive: 1.31%.

With `CN(C)CCOC(=O)C(O)(c1ccccc1)C1CCCC1` (centres undefined), the activation is inactive: 0.53%. On to `O=[N+]([O-])c1cc([N+](=O)[O-])c(Nc2ccccn2)c([N+](=O)[O-])c1`, for which the activation was inactive: 2.37%.

Take `Cc1c(NP(C)(=O)Oc2ccc(C(C)C)cc2)c(=O)n(-c2ccccc2)n1C` (centres undefined): the activation is inactive: 0.62%. Regarding `CP(=O)(Nc1ccccn1)Oc1ccccc1` (centres undefined), the activation was inactive: 1.12%. The figure for `COc1ccccc1OP(C)(=O)Nc1ccc(C)cc1C` (centres undefined) is inactive: 0%. The figure for `CCc1ccc(OP(C)(=O)O)cc1` is inactive: -1.26%; for `CCN(CC)CCCOC(=O)C(O)(c1ccccc1)c1ccccc1` it is inactive: 1.3%; for `O=[N+]([O-])c1cc([N+](=O)[O-])c(Nc2cccnc2)c([N+](=O)[O-])c1` it is inactive: 0.18%. In the case of `O=[N+]([O-])c1ccc2c(c1)C=Nc1ccccc1O2`, the activation is inactive: 3.4%. Take `CC(C)(C)c1ccc(OP(C)(=O)Nc2ccc(SC(F)(F)F)cc2)cc1` (centres undefined): the activation was inactive: 0.88%.

For the compound `Cc1cccc(C)c1OP(C)(N)=O` (centres undefined), the activation was inactive: 0.57%. Turning to `COc1ccccc1OP(C)(=O)Nc1ccc(C)cc1` (centres undefined), the activation is inactive: 0.07%. In the case of `Cc1ccc(NP(C)(=O)Oc2ccccc2)c(C)c1` (centres undefined), the activation is inactive: 2.57%.

On to `CCOC(=O)c1ccc(NP(C)(=O)Oc2ccccc2)cc1` (centres undefined), for which the activation is inactive: 0.88%. On to `Cc1cc(C)cc(OP(C)(N)=O)c1` (centres undefined), for which the activation is inactive: -1.58%. `COc1ccccc1OP(C)(=O)Nc1cc(Cl)ccc1C` (centres undefined): the activation was inactive: -0.51%. On to `COc1ccc(OP(C)(=O)Nc2cccc(F)c2)cc1` (centres undefined), for which the activation was inactive: -0.34%.

For the compound `CP(=S)(Nn1cnnc1)Oc1ccccc1` (centres undefined), the activation is inactive: 1.13%. To `CP(=O)(Nc1ccccc1Br)Oc1ccccc1` (centres undefined) belongs inactive: 1.3%; to `COc1ccccc1OP(C)(=O)Nc1ccccc1` (centres undefined), inactive: 0.58%; to `CP(=O)(Nc1ccc(SC(F)(F)F)cc1)Oc1ccc(Cl)cc1` (centres undefined), inactive: 0.9%. The figure for `Cc1ccc(Nc2c([N+](=O)[O-])cc([N+](=O)[O-])cc2[N+](=O)[O-])cc1` is inactive: -0.22%; for `Cc1cccc(C)c1OP(C)(=O)Nc1ccc(SC(F)(F)F)cc1` (centres undefined) it is inactive: 2.39%; for `CP(=O)(Oc1ccccc1)OC(c1ccccc1)C(F)(F)F` (centres undefined) it is inactive: -0.64%. Consider `CCc1ccc(OP(C)(=O)N2CCN(c3ccc([N+](=O)[O-])cc3)CC2)cc1` (centres undefined), for which the activation was inactive: -3.56%.

Consider `CP(=O)(NC(=O)Nc1ccccc1)Oc1ccccc1` (centres undefined), for which the activation is inactive: 1.9%. `Cc1cc(C)cc(OP(C)(=O)Nc2ccc(SC(F)(F)F)cc2)c1` (centres undefined): the activation is inactive: 1.13%.

As to `O=[N+]([O-])c1cc([N+](=O)[O-])c(O)c([N+](=O)[O-])c1.c1ccc(Oc2ccncc2)cc1`, the activation is inactive: 1.07%.

For the compound `CCOC(=O)c1ccc(NP(C)(=O)Oc2ccc(OC)cc2)cc1` (centres undefined), the activation was inactive: 1.73%. On to `CCOP(C)(=S)SCC(=O)NC(C)C(=O)O` (centres undefined), for which the activation was inactive: -0.3%.

On to `CP(=O)(Nc1ccccn1)Oc1ccc(Cl)cc1` (centres undefined), for which the activation was inactive: -1.94%. As to `O=[N+]([O-])c1cc([N+](=O)[O-])c(-n2nnc3ccccc32)c([N+](=O)[O-])c1`, the activation was inactive: 1.84%. The figure for `O=[N+]([O-])c1cc([N+](=O)[O-])c(-c2cnn(-c3ccccc3)c2)c([N+](=O)[O-])c1` is inactive: 0.17%; for `Cc1nc2ccc3ccccc3c2s1.O=[N+]([O-])c1cc([N+](=O)[O-])c(O)c([N+](=O)[O-])c1` it is inactive: -0.86%.

Consider `O=[N+]([O-])c1cc([N+](=O)[O-])c(Nc2nnnn2CCO)c([N+](=O)[O-])c1`, for which the activation is inactive: 1.48%. On to `CC1=C2N=C(C=C3N=C(C(C)=C4[N-][C@@](C)([C@@H]5N=C1[C@](C)(CCC(=O)NC[C@@H](C)OP(=O)([O-])O[C@H]1[C@@H](O)[C@@H](n6cnc7cc(C)c(C)cc76)O[C@@H]1CO)[C@H]5CC(N)=O)[C@@](C)(CC(N)=O)[C@@H]4CCC(N)=O)[C@@](C)(CC(N)=O)[C@@H]3CCC(N)=O)C(C)(C)[C@@H]2CCC(N)=O.[C-]#N.[Co+3]`, for which the activation is inactive: -0.29%.

In the case of `CCOC(=O)C(CC)C1=NC(C)(C)Cc2ccccc21.O=[N+]([O-])c1cc([N+](=O)[O-])c(O)c([N+](=O)[O-])c1` (centres undefined), the activation was inactive: -0.49%. Consider `CN1CCCCC1COC(=O)C1(O)c2ccccc2CCc2ccccc21` (centres undefined), for which the activation was inactive: -0.27%. The figure for `COc1ccccc1OP(C)(=O)Nc1c(C)cccc1C` (centres undefined) is inactive: -0.49%; for `CP(=O)(Nc1ccc(SC(F)(F)F)cc1)Oc1ccccc1` (centres undefined) it is inactive: 0.66%. Turning to `CCCOc1ccc(NP(C)(=O)Oc2ccc(Cl)cc2)cc1` (centres undefined), the activation was inactive: 1.73%. The figure for `O=C(O)c1cccc(Nc2c([N+](=O)[O-])cc([N+](=O)[O-])cc2[N+](=O)[O-])c1` is inactive: -0.14%; for `CC1=NCCc2c1[nH]c1ccccc21.O=[N+]([O-])c1cc([N+](=O)[O-])c(O)c([N+](=O)[O-])c1` it is inactive: -0.43%. On to `COc1ccccc1OP(C)(=O)Nc1cccc(Br)c1` (centres undefined), for which the activation is inactive: 0.47%. Regarding `CCOC(=O)c1ccc(NP(C)(=O)Oc2cc(C)cc(C)c2)cc1` (centres undefined), the activation was inactive: -2.53%. `Cc1cc(C)cc(OP(C)(=O)Nc2ccc(C)cc2C)c1` (centres undefined): the activation was inactive: 1.27%.

In the case of `Cc1ccc(C)c(NP(C)(=O)Oc2ccccc2)c1` (centres undefined), the activation is inactive: 1.28%. Regarding `CP(=O)(Nc1cccc(Br)c1)Oc1ccccc1` (centres undefined), the activation was inactive: -2.28%. With `Cc1cc(C)cc(OP(C)(=O)Nc2ccccn2)c1` (centres undefined), the activation is inactive: -1.07%.
